# In ChEMBL document CHEMBL4152336, “Optimization of the first small-molecule relaxin/insulin-like family peptide receptor (RXFP1) agonists: Activation results in an antifibrotic gene expression profile” (Eur J Med Chem, 2018):
# Target: T1, Relaxin receptor 1 (Homo sapiens) (UniProt Q9HBX9)
# T1 sequence (whole entry): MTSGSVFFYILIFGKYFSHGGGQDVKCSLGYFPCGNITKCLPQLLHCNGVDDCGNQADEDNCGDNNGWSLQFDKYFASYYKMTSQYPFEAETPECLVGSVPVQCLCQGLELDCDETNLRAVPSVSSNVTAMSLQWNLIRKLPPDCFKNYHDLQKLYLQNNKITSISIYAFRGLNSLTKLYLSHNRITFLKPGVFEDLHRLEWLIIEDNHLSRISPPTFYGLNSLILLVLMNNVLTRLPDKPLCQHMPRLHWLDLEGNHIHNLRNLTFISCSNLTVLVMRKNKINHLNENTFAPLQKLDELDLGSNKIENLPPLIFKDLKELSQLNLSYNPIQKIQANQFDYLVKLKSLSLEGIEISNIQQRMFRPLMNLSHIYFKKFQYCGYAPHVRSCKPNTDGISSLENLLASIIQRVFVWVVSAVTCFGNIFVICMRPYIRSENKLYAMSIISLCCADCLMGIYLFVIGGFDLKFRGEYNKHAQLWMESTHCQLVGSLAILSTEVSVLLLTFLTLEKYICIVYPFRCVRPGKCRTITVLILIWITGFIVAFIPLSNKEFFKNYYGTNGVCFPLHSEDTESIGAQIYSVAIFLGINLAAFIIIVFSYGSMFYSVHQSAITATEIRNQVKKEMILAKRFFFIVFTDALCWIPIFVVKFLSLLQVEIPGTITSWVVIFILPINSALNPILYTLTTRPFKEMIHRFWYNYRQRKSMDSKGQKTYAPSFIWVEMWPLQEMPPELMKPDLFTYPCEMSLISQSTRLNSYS
# Assay type: functional, cell-based
# Conditions: HEK293
compound,measurement,value
CC(C)Oc1ccccc1C(=O)Nc1ccccc1C(=O)Nc1cccc(S(=O)(=O)C(F)(F)F)c1,Efficacy,98%
